Measured affinities in a library of Ab-95 light chain variants

Binding partner: SARS-CoV-2 spike HR2 peptide, sequence PDVDLGDISGINAS.

Each scFv is VH, a (GGGGS)3 linker, VL, as in the parent Ab-95, and differs from it in the CDRs of the light chain only.
VH: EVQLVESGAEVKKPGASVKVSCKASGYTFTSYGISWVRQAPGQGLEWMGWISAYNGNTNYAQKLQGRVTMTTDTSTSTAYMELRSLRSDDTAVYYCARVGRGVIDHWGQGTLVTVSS
VL: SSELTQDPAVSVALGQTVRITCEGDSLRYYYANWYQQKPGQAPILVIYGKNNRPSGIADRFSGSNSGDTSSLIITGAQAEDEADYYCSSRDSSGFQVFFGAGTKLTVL

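AAYL52 was designed without a model: most single CDR substitutions and a random sample of double and triple ones. Affinity was read by AlphaSeq, a pooled yeast mating assay with surface-displayed partners. Binding brings cells together so that they mate, and sequencing counts the barcode pairs among the diploids. Read counts were normalised to the haploid input and turned into Kd by a linear fit to BCL2-family pairs of known affinity, for each replicate. The assay was run in three technical replicates.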

The parent's light chain CDRs are EGDSLRYYYAN, GKNNRPS, SSRDSSGFQVF; each variant's own CDRs replace them letter for letter.
This list gathers variants with a substitution at D25 (VL, numbered from residue 1).
Each Kd is an estimate from the mating assay, the geometric mean of the replicates in which the pair was seen; lower is stronger.
"no signal" means that the variant was in the library but no mating with the target was seen in any replicate; the authors take this as a sign of poor binding, and no number exists.
In this assay the parent's reference entry averaged 200 nM; its copy inside this library read 180 nM.
Background: pairings of library AAYL52 with three empty control strains gave a value in 28% of cases (median 8.2 µM, 5th percentile 800 nM). Values in that range, when seen in few replicates, are hard to tell from nonspecific mating.

CDR-L1,CDR-L2,CDR-L3,Kd (apparent),replicates with signal
EGKSLRYYYAN,GKNNRPS,SLRDCSGFQVF,3.2 µM,2 of 3
EGESLRYYYQN,GKNNRWS,SSRDSSGFQVF,2.9 µM,1 of 3
EGFSLRYCYAN,GCNNRPS,SSRDSSGFQVF,4.9 µM,2 of 3
WGHSLRYYYAN,GKNNRPS,SSRKSSGFQVF,11 µM,2 of 3
EGESLRYYCAN,GKNNRPS,SSRDHSGFQVF,49 nM,3 of 3
EGMSLRYYYAN,GKNNRPS,SSRDSSCFQCF,220 nM,3 of 3
EGLSLRLYYAN,GKNNRPS,SSRDSSGFQVF,8.5 µM,3 of 3
EGGSLRYKYAN,GKNNRPS,SSRLSSGFQVF,no signal,0 of 3
ENQQLRYYYAN,GKNNRPS,SSRDSSGFQVF,no signal,0 of 3
EGNSLVYYYAN,GKYNRPS,SSRDSSGFQVF,440 µM,1 of 3

Picked from the list: the 2 lowest averages where every replicate gave a value.

CDR-L1,CDR-L2,CDR-L3,Kd (apparent),replicates with signal
EGESLRYYCAN,GKNNRPS,SSRDHSGFQVF,49 nM,3 of 3
EGMSLRYYYAN,GKNNRPS,SSRDSSCFQCF,220 nM,3 of 3

Values reported by Engelhart et al. 2022, doi:10.1038/s41597-022-01779-4 (FLAb copy).